For experiment [1], the target named is Phosphatidylinositol 4,5-bisphosphate 3-kinase catalytic subunit gamma isoform (Homo sapiens, UniProt P48736).
For experiment [2], the target named is Phosphatidylinositol 4,5-bisphosphate 3-kinase catalytic subunit beta isoform (Homo sapiens, UniProt P42338).

Amino acid sequences for entries named in this document (tags omitted). A change or cut given only in a name is not applied to a line headed by its entry.
UniProt P48736: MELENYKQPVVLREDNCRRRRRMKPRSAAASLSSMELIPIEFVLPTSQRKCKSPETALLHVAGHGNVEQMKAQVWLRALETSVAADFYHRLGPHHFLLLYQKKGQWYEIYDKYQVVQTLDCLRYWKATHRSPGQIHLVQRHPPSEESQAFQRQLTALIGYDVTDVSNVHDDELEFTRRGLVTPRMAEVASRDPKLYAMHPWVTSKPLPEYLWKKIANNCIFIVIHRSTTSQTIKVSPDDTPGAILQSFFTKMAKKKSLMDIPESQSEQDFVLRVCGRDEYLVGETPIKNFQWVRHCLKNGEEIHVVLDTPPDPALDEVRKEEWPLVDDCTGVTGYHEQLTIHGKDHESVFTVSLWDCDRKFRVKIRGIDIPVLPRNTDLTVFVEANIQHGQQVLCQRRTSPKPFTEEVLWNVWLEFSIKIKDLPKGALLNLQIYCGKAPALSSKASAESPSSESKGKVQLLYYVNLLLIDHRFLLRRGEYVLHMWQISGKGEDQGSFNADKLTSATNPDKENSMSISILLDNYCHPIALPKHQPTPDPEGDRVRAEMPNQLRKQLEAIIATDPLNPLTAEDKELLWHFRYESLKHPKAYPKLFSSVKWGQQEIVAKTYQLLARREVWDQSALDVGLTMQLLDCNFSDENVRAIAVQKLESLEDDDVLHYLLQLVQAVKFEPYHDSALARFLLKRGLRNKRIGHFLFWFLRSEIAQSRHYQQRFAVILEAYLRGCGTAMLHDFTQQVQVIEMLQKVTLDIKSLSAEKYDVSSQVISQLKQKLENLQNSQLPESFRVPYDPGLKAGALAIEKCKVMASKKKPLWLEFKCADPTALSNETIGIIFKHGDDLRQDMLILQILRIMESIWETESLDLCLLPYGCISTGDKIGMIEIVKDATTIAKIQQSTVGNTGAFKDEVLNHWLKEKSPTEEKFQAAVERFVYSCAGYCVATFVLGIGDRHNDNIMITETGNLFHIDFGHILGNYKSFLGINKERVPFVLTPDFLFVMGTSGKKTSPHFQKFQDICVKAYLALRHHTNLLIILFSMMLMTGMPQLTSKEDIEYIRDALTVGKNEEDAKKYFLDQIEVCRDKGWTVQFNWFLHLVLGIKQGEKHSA
UniProt P42338: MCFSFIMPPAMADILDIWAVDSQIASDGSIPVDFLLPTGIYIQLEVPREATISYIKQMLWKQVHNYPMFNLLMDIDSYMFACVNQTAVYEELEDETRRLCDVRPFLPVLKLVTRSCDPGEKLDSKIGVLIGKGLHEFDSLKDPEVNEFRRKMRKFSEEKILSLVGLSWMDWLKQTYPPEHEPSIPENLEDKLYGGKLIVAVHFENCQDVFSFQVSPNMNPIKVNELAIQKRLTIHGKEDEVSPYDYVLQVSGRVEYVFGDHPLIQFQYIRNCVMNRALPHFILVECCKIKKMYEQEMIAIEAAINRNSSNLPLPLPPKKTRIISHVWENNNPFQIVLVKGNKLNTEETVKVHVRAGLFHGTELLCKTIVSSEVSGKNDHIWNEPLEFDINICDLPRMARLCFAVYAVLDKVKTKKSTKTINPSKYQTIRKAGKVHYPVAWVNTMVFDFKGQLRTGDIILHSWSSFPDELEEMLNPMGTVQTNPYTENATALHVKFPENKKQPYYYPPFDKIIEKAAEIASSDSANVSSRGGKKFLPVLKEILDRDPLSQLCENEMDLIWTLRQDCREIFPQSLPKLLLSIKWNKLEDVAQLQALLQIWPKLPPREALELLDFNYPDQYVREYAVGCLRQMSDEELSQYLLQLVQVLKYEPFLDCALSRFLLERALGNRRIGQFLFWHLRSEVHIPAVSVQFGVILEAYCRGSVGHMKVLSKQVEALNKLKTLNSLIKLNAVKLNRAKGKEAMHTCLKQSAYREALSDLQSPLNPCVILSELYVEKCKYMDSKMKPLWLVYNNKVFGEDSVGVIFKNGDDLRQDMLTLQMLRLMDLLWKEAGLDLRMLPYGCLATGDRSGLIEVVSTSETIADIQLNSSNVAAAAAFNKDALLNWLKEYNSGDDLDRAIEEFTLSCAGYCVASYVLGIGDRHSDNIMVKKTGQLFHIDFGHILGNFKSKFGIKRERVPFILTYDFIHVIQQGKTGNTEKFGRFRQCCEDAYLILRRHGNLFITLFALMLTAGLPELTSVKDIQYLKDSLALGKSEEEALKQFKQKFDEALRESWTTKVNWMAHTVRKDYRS

Here are results for 4 compounds from BindingDB's records for patent US10172858 (Intellikine, 2019).

For the compound `CNc1noc2ccc(-c3nn(C(C)C)c4ncnc(N)c34)cc12` [US10172858, Table 1.15], the 50% inhibitory concentration (IC50) in experiment [1] was above 10 µM.

For `Nc1noc2ccc(-c3nn(CCN4CCOCC4)c4ncnc(N)c34)cc12` [US10172858, Table 1.18], the IC50 in experiment [1] was above 10 µM. In experiment [1], `CCOC(=O)C(C)n1nc(-c2ccc3oc(N)nc3c2)c2c(N)ncnc21` (centres undefined) [US10172858, Table 1.24] displayed a 50% inhibitory concentration (IC50) above 10 µM. Compound `Nc1nc2cc(-c3nn(C4CC(O)C4)c4ncnc(N)c34)ccc2o1` (centres undefined) [US10172858, Table 1.26] showed an IC50 in experiment [2] below 1 µM.

Broadly, the IC50 is the concentration needed to halve the response being measured. High values mean lower potency, low ones higher potency.
